Reference: US20070207230A1, “EXTRACT OF NELUMBINIS SEMEN FOR THE TREATMENT OF DEPRESSION, MEDICINAL COMPOSITE AND HEALTH FOODS INCLUDING THE EXTRACT OF NELUMBINIS SEMEN” (PURIMED CO., LTD., priority 2004, published 2007)

Tests used:
5-HT [1] = assay: 5-HT levels in normal animals by microdialysis and HPLC-ECD; format: in vivo, rat; settings: 10 mg/kg i.p.
5-HT [2] = assay: 5-HT levels in hippocampus of CMS rats by microdialysis and HPLC-ECD; format: in vivo, rat

CNCCC(Oc1ccc(C(F)(F)F)cc1)c1ccccc1 (stereo not drawn) [fluoxetine]
5-HT levels (5-HT [1]): significantly increased
5-HT levels in the hippocampus (5-HT [2]; CMS rats, 10 mg/kg i.p., versus control group, P<0.05): significant increase
levels of the 5-HT neurotransmitter (5-HT [2]; chronic CMS model, dose not stated): significantly increase
